Protein sequences, listed by entry. Tags and fused reporters are not part of them.
UniProt O14727, whole entry: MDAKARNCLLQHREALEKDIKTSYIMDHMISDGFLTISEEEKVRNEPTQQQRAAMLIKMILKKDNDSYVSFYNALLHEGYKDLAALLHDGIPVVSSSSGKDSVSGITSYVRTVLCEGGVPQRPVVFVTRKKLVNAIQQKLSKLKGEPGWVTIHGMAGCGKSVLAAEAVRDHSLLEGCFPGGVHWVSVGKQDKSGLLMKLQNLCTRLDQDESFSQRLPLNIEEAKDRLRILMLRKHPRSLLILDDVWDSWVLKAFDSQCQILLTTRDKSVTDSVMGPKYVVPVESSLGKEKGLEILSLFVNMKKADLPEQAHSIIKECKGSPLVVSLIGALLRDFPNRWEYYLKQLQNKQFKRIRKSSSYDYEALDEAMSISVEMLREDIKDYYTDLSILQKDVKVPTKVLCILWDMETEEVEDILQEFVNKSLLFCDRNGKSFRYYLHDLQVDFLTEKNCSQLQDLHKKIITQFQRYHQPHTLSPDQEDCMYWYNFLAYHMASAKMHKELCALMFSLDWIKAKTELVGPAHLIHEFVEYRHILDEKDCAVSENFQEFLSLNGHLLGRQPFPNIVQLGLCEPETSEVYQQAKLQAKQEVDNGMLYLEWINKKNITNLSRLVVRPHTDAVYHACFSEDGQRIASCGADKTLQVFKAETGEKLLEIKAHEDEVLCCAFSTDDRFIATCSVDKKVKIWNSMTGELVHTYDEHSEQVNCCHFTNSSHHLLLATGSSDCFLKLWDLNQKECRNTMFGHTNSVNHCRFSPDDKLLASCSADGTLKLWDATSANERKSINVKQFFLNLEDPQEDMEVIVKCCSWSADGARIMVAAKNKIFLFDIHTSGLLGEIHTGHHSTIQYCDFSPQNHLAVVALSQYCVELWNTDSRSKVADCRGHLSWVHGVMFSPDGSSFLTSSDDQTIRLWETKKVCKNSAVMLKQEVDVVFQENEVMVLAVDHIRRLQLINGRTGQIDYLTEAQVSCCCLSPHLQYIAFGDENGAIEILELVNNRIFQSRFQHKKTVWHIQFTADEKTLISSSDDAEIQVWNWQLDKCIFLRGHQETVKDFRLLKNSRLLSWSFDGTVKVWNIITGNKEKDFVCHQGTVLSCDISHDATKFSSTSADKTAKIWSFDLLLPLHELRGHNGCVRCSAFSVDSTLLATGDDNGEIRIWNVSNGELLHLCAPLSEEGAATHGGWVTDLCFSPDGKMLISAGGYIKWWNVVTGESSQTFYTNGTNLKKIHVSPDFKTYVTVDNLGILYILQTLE

Only a part is listed here, and it is no random draw. Some salts and complexes are drawn in separate pieces, as the source files them; their charges need not balance. The source made the active and inactive calls. How the source made its calls: active means inhibition of at least 40% at 20 µM; inactive means the rest.
These compounds were tested against Apoptotic protease-activating factor 1 (Homo sapiens) (UniProt O14727) (assay: blockers of Apaf-1-driven caspase-3 activation – biochemical, DEVD-Rh110 fluorescence, uHTS, primary screen (AID 489030;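 further: plate controls were DMSO wells for no effect and DEVD-CHO caspase inhibitor wells for full effect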)). Conditions: reconstituted apoptosome caspase-3 activity, at 20 µM, hits give high values.
In the case of `CCc1ccc(OP(C)(=O)O)cc1`, the inhibition is reported as inactive: -5.74%.
`COc1ccccc1OP(C)(=O)Nc1ccc(C)cc1C` (centres undefined) was tested, and the inhibition was inactive: -3.8%.
For `CP(=O)(Nc1ccccn1)Oc1ccccc1` (centres undefined), the inhibition was inactive: -5.57%.
`COc1ccccc1OP(C)(=O)Nc1ccc(Br)cc1` (centres undefined) was tested, and the inhibition was inactive: 1.93%.
`CN(C)CCOC(=O)C(O)(c1ccccc1)C1CCCC1` (centres undefined) was tested, and the inhibition was inactive: -9.22%.
With `COc1ccc(OP(C)(=O)Nc2ccccn2)cc1` (centres undefined) the inhibition was inactive: -10.6%.
`Cc1nc2ccc3ccccc3c2o1.O=[N+]([O-])c1cc([N+](=O)[O-])c(O)c([N+](=O)[O-])c1` was tested, and the inhibition was inactive: 12.8%.
`CP(=O)(Nc1ccc(Cl)cc1Cl)Oc1ccccc1` (centres undefined) was tested, and the inhibition was inactive: -16.1%.
For `CP(=O)(OCCOc1ccccc1)OCCOc1ccccc1`, the inhibition was inactive: 11.1%.
In the case of `Cc1cc(C)cc(OP(C)(=O)Nc2cccc(C(F)(F)F)c2)c1` (centres undefined), the inhibition is reported as inactive: 21.7%.
With `COc1ccc(OP(C)(=O)Nc2ccccc2Br)cc1` (centres undefined) the inhibition was inactive: -1.2%.
`COc1ccccc1OP(C)(=O)Nc1ccc(C)c(C)c1` (centres undefined) was tested, and the inhibition was inactive: -0.181%.
With `Nc1ccc2c(ccc3cccnc32)n1.O=[N+]([O-])c1cc([N+](=O)[O-])c(O)c([N+](=O)[O-])c1` the inhibition was inactive: -9.37%.
For `CP(=O)(OC12CC3CC(CC(C3)C1)C2)OC12CC3CC(CC(C3)C1)C2`, the inhibition was inactive: 19.5%.
For `CCOC(=O)c1ccc(NP(C)(=O)Oc2ccc(Cl)cc2)cc1` (centres undefined), the inhibition was inactive: 7%.
With `CP(=O)(Nc1ccc(Cl)cc1)Oc1ccc(F)cc1` (centres undefined) the inhibition was inactive: -0.947%.
In the case of `COc1ccccc1OP(C)(=O)Nc1ccccc1Br` (centres undefined), the inhibition is reported as inactive: -4.9%.
For `CC(C)(C)c1ccc(OP(C)(=O)O)cc1`, the inhibition was inactive: 5.7%.
For `CN(C)C(=O)c1c([N+](=O)[O-])cc([N+](=O)[O-])cc1[N+](=O)[O-]`, the inhibition was inactive: 0.381%.
`COc1ccc(OP(C)(=O)Nc2ccc(Br)cc2)cc1` (centres undefined) was tested, and the inhibition was inactive: 1.53%.
`CCN(CC)CC(O)COC(=O)C(O)(c1ccccc1)C1CCCCC1` (centres undefined) was tested, and the inhibition was inactive: 5.51%.
For `CCc1ccc(OP(C)(=O)Nc2cccnc2)cc1` (centres undefined), the inhibition was inactive: -4.74%.
With `CP(=O)(Oc1ccccc1)N1CCOC1=O` (centres undefined) the inhibition was inactive: -1.68%.
With `O=C(OCCCN1CCCC1)C(O)(c1ccccc1)C1CCCCC1` (centres undefined) the inhibition was inactive: -11.1%.
`COc1ccccc1OP(C)(=O)Nc1c(C)n(C)n(-c2ccccc2)c1=O` (centres undefined) was tested, and the inhibition was inactive: -6.49%.
With `CP(=O)(Nc1ccc2c(c1)OCCO2)Oc1ccccc1` (centres undefined) the inhibition was inactive: -17.1%.
`Cc1ccccc1NP(C)(=O)Nc1ccccc1C` was tested, and the inhibition was inactive: 10.5%.
With `CP(=O)(Nc1ccc(SC(F)(F)F)cc1)Oc1ccc(F)cc1` (centres undefined) the inhibition was inactive: 5.59%.
In the case of `CCOP(C)(=S)SCC(=O)NC(C)(CC)C(=O)O` (centres undefined), the inhibition is reported as inactive: 3.76%.
In the case of `O=[N+]([O-])c1cc([N+](=O)[O-])c(NCC2CCS(=O)(=O)C2)c([N+](=O)[O-])c1` (centres undefined), the inhibition is reported as inactive: -0.736%.
`COc1ccc(OP(C)(=O)Nc2cccc(Br)c2)cc1` (centres undefined) was tested, and the inhibition was inactive: 6.77%.
With `COc1ccc(NP(C)(=O)Oc2ccccc2OC)cc1` (centres undefined) the inhibition was inactive: -5.09%.
For `CN(C)CCOC(=O)C(O)(c1ccccc1)C1CCCCC1` (centres undefined), the inhibition was inactive: 8.28%.
In the case of `CCN(CC)CCCOC(=O)C(O)(c1ccccc1)C1CCCCC1` (centres undefined), the inhibition is reported as inactive: -1.62%.
With `CCCCCOc1ccc(NP(C)(=O)Oc2ccc(Cl)cc2Cl)cc1` (centres undefined) the inhibition was inactive: 23.9%.
`O=[N+]([O-])c1cc([N+](=O)[O-])c(OC2CCCCC2O)c([N+](=O)[O-])c1` (centres undefined) was tested, and the inhibition was inactive: 3.59%.
With `CP(=O)(Nc1ccccc1)Oc1ccc(F)cc1` (centres undefined) the inhibition was inactive: -15.4%.
In the case of `COc1ccc(OP(C)(=O)Nc2ccc(SC(F)(F)F)cc2)cc1` (centres undefined), the inhibition is reported as inactive: 6.08%.
With `CCOC(=O)c1ccc(NP(C)(=O)Oc2ccc(F)cc2)cc1` (centres undefined) the inhibition was inactive: 1.01%.
In the case of `O=C(OCCN1CCN(CCOCc2ccccc2)CC1)C(O)(c1ccccc1)c1ccccc1`, the inhibition is reported as inactive: -12%.
With `O=C(OC1CN2CCC1CC2)c1ccc([N+](=O)[O-])cc1` (centres undefined) the inhibition was inactive: -2.38%.
In the case of `COc1ccc2c(c1O)-c1c(O)c(OC)cc3c1[C@H](C2)[N+](C)(C)CC3.O=[N+]([O-])c1cc([N+](=O)[O-])c([O-])c([N+](=O)[O-])c1[O-]`, the inhibition is reported as inactive: 15%.
For `CC(C)c1ccc(OP(C)(=O)Nc2ccc(SC(F)(F)F)cc2)cc1` (centres undefined), the inhibition was inactive: 32.2%.
In the case of `CP(=O)(Nc1ccccc1F)Oc1ccccc1` (centres undefined), the inhibition is reported as inactive: -4.56%.

Reference: PubChem BioAssay AID489030 (Sanford-Burnham Center for Chemical Genomics, 2010)
